The values below come from patent US20210371422A1, “MORPHINAN DERIVATIVE” (priority 2016, published 2021).

One data set deals with opioid δ receptor (Mus musculus, UniProt P32300). The data set can be described thus: [3H]DPDPE competitive binding test in a mouse cerebral membrane fraction. The conditions noted are these: read-out: Ki value of binding affinity to the opioid δ receptor. The source says:
A comparative compound was a compound described in Example 12 of WO 2014/136305 (Patent Literature 6). […] The concentration in the cerebrospinal fluid at this time was almost equal to a Ki value of 1.2 nmol/L of binding affinity to the opioid δ receptor (measured by [^3H]DPDPE competitive binding test in a mouse cerebral membrane fraction).

The next data set concerns Wistar male rats. The data set can be described thus: Rat elevated plus maze test. The conditions noted are these: s.c. On the procedure:
Rat Elevated Plus Maze Test
An anxiolytic effect of a compound provided by the present invention was examined using the rat elevated plus maze test.
For the test, 7 to 9 weeks old Wistar male rats were used. […] Each test substance was dissolved in a 4.5% aqueous solution of cyclodextrin, and orally administered 2 hours before the start of the test. The test data were automatically analyzed by using video image action analysis software (Smart3.0, PanLab S.L., PanLab), and wall-less running route staying time ratio (%) was calculated.

Data set [1] is described as follows: Intracerebral migration test (concentration in cerebrospinal fluid and plasma). The settings on record: rat, 10 mg/kg s.c., 30 minutes after administration. The protocol: Intracerebral Migration Test
A Wistar male 5-9 week old rat was used for the test. A test substance was dissolved in saline or a 4.5% cyclodextrin aqueous solution, and 1 mol/L hydrochloric acid (0.5 to 2.0 v/v %) was added thereto as necessary. The test substance was subcutaneously administered to the rat at a dose of 3 or 10 mg/kg. Thirty minutes later, cerebrospinal fluid was collected from the cisterna magna under isoflurane anesthesia. Subsequently, laparotomy was performed, and blood was collected from the vena cava. Thereafter, the blood was centrifuged at 1500×g at 4° C. for 15 minutes to obtain plasma. The animal was euthanized promptly by aortic cutting. The concentrations of the test substance in cerebrospinal fluid and plasma were measured using LC-MS/MS.

Usually Ki stands for the equilibrium dissociation constant of an inhibitor or competing ligand from its target. Take `NCCCN1CCC23c4cc(O)ccc4CC1C21CCC2C3[C@@H](CN2C(=O)c2ccccc2)C1` (stereo partly shown): on opioid δ receptor, the inhibition constant Ki came to 1.2 nM. In the data set on Wistar male rats, the “minimum effective medicinal dose” value turned out to be 10 mg/kg. In addition, in data set [1], the “Concentration in cerebrospinal fluid” value was 3.6 nM and the Concentration in plasma was 2400 nM.
